Sequences of proteins named here, by UniProt entry; tags and fusion partners are left off. A change or cut given only in a name is not applied to a line headed by its entry.
UniProt P33534: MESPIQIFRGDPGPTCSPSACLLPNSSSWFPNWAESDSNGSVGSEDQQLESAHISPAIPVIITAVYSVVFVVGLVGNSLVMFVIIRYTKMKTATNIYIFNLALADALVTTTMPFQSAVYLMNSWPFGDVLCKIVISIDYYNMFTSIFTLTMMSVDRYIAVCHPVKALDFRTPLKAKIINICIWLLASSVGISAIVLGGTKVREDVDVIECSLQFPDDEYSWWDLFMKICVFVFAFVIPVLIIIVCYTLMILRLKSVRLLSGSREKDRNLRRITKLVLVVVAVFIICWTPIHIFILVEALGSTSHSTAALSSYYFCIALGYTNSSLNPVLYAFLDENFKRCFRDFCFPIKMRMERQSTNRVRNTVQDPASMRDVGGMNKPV

According to patent US5578725A, “Delta opioid receptor antagonists” (priority 1995, dated 1996):

Target: κ (Mus musculus, UniProt P33534)
Experiment: Tail-flick assay, antagonism of U50,488H (κ) antinociception
Type: in vivo, male Swiss-Webster mice
Conditions: agonist, mice

CN(C(=O)Cc1ccc(Cl)c(Cl)c1)[C@@H]1CCCC[C@H]1N1CCCC1 (racemic)
Peak antinociceptive activity time: 20 min
